{"source": "patent US20080275430A1", "about": "“Prolonged Transit Time of Permeability-Enhancing Drug Eluting Pill” (priority 2004, published 2008)", "key": {"[1]": {"system": "proximal ileum tissue samples", "details": "18 Hz, 3 mA, 1 millisecond, at 7 minutes, vs region control (FIG. 36)"}, "[2]": {"system": "distal ileum tissue samples", "details": "18 Hz, 3 mA, 1 millisecond, at 7 minutes, vs region control (FIG. 36)"}, "[3]": {"system": "upper jejunum tissue segment", "details": "for permeation efficiency, effect of pulse cycle: 1 millisecond (FIG. 31); for ocreotide permeation vs control group: 3 mA (FIG. 29); for permeation efficiency, effect of electrode material: 1 millisecond (FIG. 34)"}, "[4]": {"system": "upper jejunum tissue segments", "details": "12 Hz monophasic pulses, 1 millisecond, 3 mA, vs control without electrical stimulation; 1 mg/ml in HBSS pH 7.4, 90-minute period"}}, "note": "Where two headings read alike, the source gives them in different places."}
{"substance": "ocreotide acetate", "values": [{"measurement": "permeation efficiency, effect of pulse application by intestinal region", "setting": "[1]", "value": "increased permeation efficiency"}, {"measurement": "permeation efficiency, effect of pulse application by intestinal region", "setting": "[2]", "value": "positive but less pronounced effect"}, {"measurement": "permeation efficiency, effect of pulse cycle", "setting": "[3]; 1 pulse per cycle among 1, 2, 3 pulses per cycle, 18 Hz, 3 mA", "value": "greatest permeation efficiency"}, {"measurement": "transport enhancement ratio (ER), effect of pulse frequency", "setting": "[3]; 18 Hz among 5, 12, 18, 24, 30, 60 Hz, 1 millisecond, 3 mA, at 30 minutes (FIG. 28)", "value": "greatest enhancement ratio"}, {"measurement": "permeation efficiency, effect of pulse cycle", "setting": "[3]; as the number of pulses per cycle increased (2 and 3 pulses per cycle, 5-millisecond intervals), 18 Hz, 3 mA", "value": "permeation efficiency decreased"}, {"measurement": "permeation efficiency, effect of cessation of pulse application", "setting": "[3]; continuous application vs cessation after 10 minutes, 18 Hz, 3 mA, 1 millisecond, normalized to non-stimulated control (FIG. 35)", "value": "substantially greater permeation efficiency"}, {"measurement": "magnitude of permeation efficiency, effect of electrode distance from jejunal tissue", "setting": "[3]; electrode distance 0.5 mm vs 3 mm, 18 Hz, 3 mA, 1 millisecond, at 15 minutes (FIG. 32)", "value": "greater at 0.5 mm than at 3 mm"}, {"measurement": "permeation efficiency, effect of pulse application by intestinal region", "setting": "[3]; jejunal tissue, 18 Hz, 3 mA, 1 millisecond, at 7 minutes, vs region control (FIG. 36)", "value": "greatest effect of pulse application"}, {"measurement": "ocreotide permeation (permeation efficiency)", "setting": "[3]; monophasic rectangular pulses 1 millisecond, 18 Hz, 3 mA, vs non-stimulated control group (FIG. 27)", "value": "substantially enhanced ocreotide permeation"}, {"measurement": "transport enhancement ratio (ER), effect of pulse duration", "setting": "[3]; pulse duration 1 millisecond among 0.2, 0.5, 1, 3 milliseconds, 18 Hz, 3 mA, at 15 minutes (FIG. 30)", "value": "greatest enhancement ratio"}, {"measurement": "ocreotide permeation vs control group", "setting": "[3]; pulses at 5 Hz, 1 millisecond", "value": "did not yield a higher ocreotide permeation"}, {"measurement": "ocreotide permeation vs control group", "setting": "[3]; pulses at 60 Hz, 1 millisecond", "value": "did not yield a higher ocreotide permeation"}, {"measurement": "permeation efficiency, effect of electrode material", "setting": "[3]; silver chloride (AgCl) electrodes, 18 Hz, 3 mA", "value": "did not increase permeation efficiency"}, {"measurement": "permeation efficiency, effect of electrode material", "setting": "[3]; stainless steel (SS316L) electrodes, 18 Hz, 3 mA", "value": "substantially increased permeation efficiency"}, {"measurement": "permeation efficiency, effect of electrode material", "setting": "[3]; titanium nitride (TN) electrodes, 18 Hz, 3 mA", "value": "did not increase permeation efficiency"}, {"measurement": "permeation efficiency, effect of electrode insulation", "setting": "[3]; without divider 528, electrodes not insulated from each other, 18 Hz, 3 mA, 1 millisecond (FIG. 33)", "value": "did not increase permeation efficiency"}, {"measurement": "ocreotide permeation into acceptor cell", "setting": "[4]", "value": "substantially greater increase in ocreotide permeation"}]}
